Source: US20230312529A1, “PYRIMIDINE SMALL-MOLECULE COMPOUND AND APPLICATION THEREOF” (WENZHOU MEDICAL UNIVERSITY, priority 2021, published 2023)

Experiments:
Test in all cases: MTT assay on osteosarcoma cells
Assay type in all cases: cell-based
[1] = tested on: MNNG/HOS osteosarcoma cells; conditions: 48 hours, read-out: Inhibitory activity (IC50) MNNG/HOS
[2] = tested on: SAOS-2 osteosarcoma cells; conditions: Homo sapiens, 48 hours, read-out: Inhibitory activity (IC50) SAOS-2
MG-63 osteosarcoma cells = conditions: Homo sapiens, 48 hours, read-out: Inhibitory activity (IC50) MG-63
U2OS osteosarcoma cells = conditions: Homo sapiens, 48 hours, read-out: Inhibitory activity (IC50) U2OS

SMILES: Cc1cnc(Nc2ccc(N3CCN(C)CC3)cc2)nc1Nc1ccc2cn[nH]c2c1 [Compound 6g, N^4-(1H-indazol-6-yl)-5-methyl-N^2-(4-(4-methylpiperazine-1-yl)phenyl)pyrimidine-2,4-diamine]
- IC50 [1]: 1400 ± 3 nM
- IC50 [2]: 950 ± 1 nM
- IC50 (MG-63 osteosarcoma cells): 958 ± 7 nM
- IC50 (U2OS osteosarcoma cells): 552 ± 2.3 nM
